Drawing on patent US7338669B2, “Inorganic boranophosphate salts” (Bar-Ilan University, priority 2005, dated 2008), this text covers water solubility for one substance.

The series is described as follows: Solubility of BPi salts in water and organic solvents. To be noted: in water. The class given is physicochemical.

Consider Ammonium Boranophosphate [Compound 2a], for which the water solubility entry is given as “highly water-soluble”.
